Data on one molecule can be found in paper PMC4519180 (2015).

The test concerns the target p8 probe peptide, labeled with 6-carboxyfluorescein (6-carboxyfluorescein at the N-terminus).

B1: recombinant purified ABL SH3 domain alone (domain or fragment)
chain: NDPNLFVALYDFVASGDNTLSITKGEKLRVLGYNHNGEWCEAQTKNGQGWVPSNYITPVNS
Regarding B1, the Kd was found to be 5 µM.
